From PMC2289219 (The Journal of Cell Biology, 1991)

System: monolayers of brain ECs

OC[C@H]1O[C@@](CO)(O[C@H]2O[C@H](CO)[C@@H](O)[C@H](O)[C@H]2O)[C@@H](O)[C@@H]1O [sucrose]
Flux across high resistance monolayers: limited compared to that occurring across filters without cells
